Data published in ChEMBL document CHEMBL1142292, “Synthesis and biological activity of novel peptide mimetics as melanocortin receptor agonists” (Bioorg Med Chem Lett, 2008).

Chains of the proteins cited; added tags and fusions are not shown. Lines headed by an entry give the natural chain unless they say otherwise; changes in a name come on top.
UniProt Q01726: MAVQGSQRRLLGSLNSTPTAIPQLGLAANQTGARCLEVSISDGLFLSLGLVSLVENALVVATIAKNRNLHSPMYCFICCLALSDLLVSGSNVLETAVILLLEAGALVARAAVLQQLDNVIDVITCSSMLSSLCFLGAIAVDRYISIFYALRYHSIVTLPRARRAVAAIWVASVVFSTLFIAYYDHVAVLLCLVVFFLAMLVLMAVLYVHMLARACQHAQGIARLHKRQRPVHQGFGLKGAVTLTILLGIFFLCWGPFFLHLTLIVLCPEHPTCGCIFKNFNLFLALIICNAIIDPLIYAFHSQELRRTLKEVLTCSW
UniProt P41968: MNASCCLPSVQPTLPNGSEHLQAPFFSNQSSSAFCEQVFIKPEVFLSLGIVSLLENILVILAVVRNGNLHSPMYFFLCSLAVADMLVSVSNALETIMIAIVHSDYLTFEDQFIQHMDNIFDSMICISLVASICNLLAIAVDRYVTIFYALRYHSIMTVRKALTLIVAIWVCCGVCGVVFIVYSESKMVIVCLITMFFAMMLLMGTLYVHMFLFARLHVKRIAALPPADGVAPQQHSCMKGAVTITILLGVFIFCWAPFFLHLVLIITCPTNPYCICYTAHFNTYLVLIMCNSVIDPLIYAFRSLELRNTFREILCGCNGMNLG

Experiments:
[1] = target: Melanocyte-stimulating hormone receptor (Homo sapiens, UniProt Q01726); test: Agonist activity at human MC1 receptor expressed in HEK293 cells; format: functional, cell-based
Summary of the method: (§1)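 HEK293 cells stably transfected with the receptor subtype and a CRE-luciferase reporter; cells assayed in 96-well format for luciferase activity. Response expressed as percent of maximal activity (Emax) of NDP-MSH (MT-I) reference agonist.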

[2] = target: Melanocortin receptor 3 (Homo sapiens, UniProt P41968); test: Agonist activity at human MC3 receptor expressed in HEK293 cells; format: functional, cell-based; summary of the method: as §1

O=C(N[C@H](Cc1ccc(Cl)cc1)C(=O)N1CCC(Cn2cncn2)(C2CCCCC2)CC1)[C@H]1Cc2ccccc2CN1
EC50 [1]: 5 nM
EC50 [2]: 160 nM
